Measurements taken from ChEMBL document CHEMBL3352588, “Targeting the homologous recombination pathway by small molecule modulators” (Bioorg Med Chem Lett, 2014).

Amino acid sequences for entries named in this document (tags omitted). A change or cut given only in a name is not applied to a line headed by its entry.
UniProt P54132: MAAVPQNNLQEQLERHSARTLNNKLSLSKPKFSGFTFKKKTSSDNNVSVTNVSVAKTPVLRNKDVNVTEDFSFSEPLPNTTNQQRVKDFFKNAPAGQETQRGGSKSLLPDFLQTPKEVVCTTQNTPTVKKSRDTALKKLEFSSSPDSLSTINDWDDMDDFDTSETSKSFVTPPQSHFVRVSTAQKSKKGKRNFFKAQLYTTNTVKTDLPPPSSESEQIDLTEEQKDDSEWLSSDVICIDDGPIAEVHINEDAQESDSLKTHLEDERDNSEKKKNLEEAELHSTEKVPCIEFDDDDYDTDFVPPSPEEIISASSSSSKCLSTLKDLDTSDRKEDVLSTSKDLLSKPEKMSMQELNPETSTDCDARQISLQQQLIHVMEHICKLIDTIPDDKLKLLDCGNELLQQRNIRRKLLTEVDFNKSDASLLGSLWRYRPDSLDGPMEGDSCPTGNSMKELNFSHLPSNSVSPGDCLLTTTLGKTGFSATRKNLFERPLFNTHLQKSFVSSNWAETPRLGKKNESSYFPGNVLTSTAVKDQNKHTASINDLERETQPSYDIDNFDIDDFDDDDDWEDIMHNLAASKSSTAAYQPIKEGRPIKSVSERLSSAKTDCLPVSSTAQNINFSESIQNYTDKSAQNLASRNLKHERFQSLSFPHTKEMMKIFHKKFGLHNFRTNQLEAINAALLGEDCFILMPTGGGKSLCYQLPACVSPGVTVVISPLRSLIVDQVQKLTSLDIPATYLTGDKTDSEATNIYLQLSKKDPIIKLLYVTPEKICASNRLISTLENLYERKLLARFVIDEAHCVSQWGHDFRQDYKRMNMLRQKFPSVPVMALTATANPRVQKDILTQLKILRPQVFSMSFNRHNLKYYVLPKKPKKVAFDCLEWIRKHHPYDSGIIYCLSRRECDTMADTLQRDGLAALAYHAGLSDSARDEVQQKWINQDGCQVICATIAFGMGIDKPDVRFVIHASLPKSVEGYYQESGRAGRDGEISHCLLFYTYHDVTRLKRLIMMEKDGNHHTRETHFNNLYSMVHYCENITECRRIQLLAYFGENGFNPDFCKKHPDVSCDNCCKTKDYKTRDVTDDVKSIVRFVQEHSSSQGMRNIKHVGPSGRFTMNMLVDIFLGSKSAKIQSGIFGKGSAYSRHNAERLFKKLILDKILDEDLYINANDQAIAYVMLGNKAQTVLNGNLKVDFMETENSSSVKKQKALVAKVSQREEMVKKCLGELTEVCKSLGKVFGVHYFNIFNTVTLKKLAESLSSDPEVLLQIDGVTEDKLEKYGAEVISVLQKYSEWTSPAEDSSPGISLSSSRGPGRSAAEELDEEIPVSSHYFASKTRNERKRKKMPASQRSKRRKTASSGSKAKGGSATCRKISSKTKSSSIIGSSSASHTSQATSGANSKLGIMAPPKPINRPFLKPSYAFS

Experiments:
[1] = molecular target: DNA repair protein RAD51 homolog 1 (Homo sapiens) (UniProt Q06609); test: Binding affinity to RAD51 (unknown origin) by surface plasmon resonance method
[2] = molecular target: DNA repair protein RAD51 homolog 1 (Homo sapiens) (UniProt Q06609); test: Inhibition of RAD51 (unknown origin) binding to ssDNA
[3] = molecular target: T1, Double-strand break repair protein MRE11 (Homo sapiens) (UniProt P49959); details: HEK293, 25 uM
T1 sequence (whole entry): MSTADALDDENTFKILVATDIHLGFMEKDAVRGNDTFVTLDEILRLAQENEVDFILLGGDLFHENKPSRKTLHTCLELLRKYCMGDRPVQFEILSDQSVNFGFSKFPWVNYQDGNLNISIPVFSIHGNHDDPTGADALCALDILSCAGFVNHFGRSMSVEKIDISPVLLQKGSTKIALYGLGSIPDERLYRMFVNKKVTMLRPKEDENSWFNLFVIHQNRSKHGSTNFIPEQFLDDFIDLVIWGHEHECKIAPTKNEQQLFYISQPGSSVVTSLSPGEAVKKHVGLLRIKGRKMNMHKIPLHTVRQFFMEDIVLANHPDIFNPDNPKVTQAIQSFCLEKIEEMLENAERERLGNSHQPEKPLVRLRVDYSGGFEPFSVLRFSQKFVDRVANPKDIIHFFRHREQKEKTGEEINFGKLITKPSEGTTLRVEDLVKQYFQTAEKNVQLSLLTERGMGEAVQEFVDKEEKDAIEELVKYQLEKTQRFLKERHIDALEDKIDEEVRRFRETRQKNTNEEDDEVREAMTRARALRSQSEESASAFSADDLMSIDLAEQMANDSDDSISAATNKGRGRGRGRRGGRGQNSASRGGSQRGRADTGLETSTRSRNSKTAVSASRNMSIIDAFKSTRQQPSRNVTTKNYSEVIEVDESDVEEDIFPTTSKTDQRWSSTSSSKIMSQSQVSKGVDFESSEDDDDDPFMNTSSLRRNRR

[4] = molecular target: T2, RecQ-like DNA helicase BLM (Homo sapiens, UniProt P54132); test: Inhibition of BLM helicase (unknown origin) assessed as branch migration activity
[5] = molecular target: T2, RecQ-like DNA helicase BLM; test: Inhibition of BLM helicase (unknown origin) binding to DNA

Which Kd [1] does the source give for `O=S(=O)(O)c1cc(N=C=S)ccc1/C=C/c1ccc(N=C=S)cc1S(=O)(=O)O` here?
Its Kd is 2 µM.

And the EC50 [2]?
Its EC50 is 1 µM.

How did the EC50 [2] turn out when `O=C1C(Cl)=C(N2CCOCC2)C(=O)N1c1ccc(Cl)c(Cl)c1` was run?
Its EC50 is 5 µM.

How did the inhibition [3] turn out when `N=C1NC(=O)/C(=C/c2ccc(O)cc2)S1` was run?
The inhibition was 70%.

For `O=C(Nc1ccc(F)c(C(F)(F)F)c1)Nc1nnc(-c2ccncc2)s1`, which IC50 [4] is on record?
Its IC50 is 50 µM.

And the IC50 [5]?
The IC50 was 3 µM.
